{
  "source": "ChEMBL document CHEMBL1153225",
  "about": "(Bioorg Med Chem Lett, 2010)",
  "data": [
    {"system": "RAW264.7", "assay": "Antiresorptive activity in mouse RAW264.7 cells assessed as inhibition of tartrate-resistant acid phosphatase activity", "units": {"IC50": "µM"}, "values": [
      {"smiles": "CC(C)N(/C(Cc1ccccc1)=N\\P(=O)(Oc1ccccc1)Oc1ccccc1)C(C)C", "IC50": 2},
      {"smiles": "CCCCN/C(Cc1ccccc1)=N\\P(=O)(Oc1ccccc1)Oc1ccccc1", "IC50": 4.8},
      {"smiles": "O=P(/N=C(/Cc1ccccc1)N1CCOCC1)(Oc1ccccc1)Oc1ccccc1", "IC50": 10.6},
      {"smiles": "COc1ccc(C/C(=N/P(=O)(Oc2ccccc2)Oc2ccccc2)N(C(C)C)C(C)C)cc1", "IC50": 21.2},
      {"smiles": "CCCN/C(Cc1ccccc1)=N\\P(=O)(Oc1ccccc1)Oc1ccccc1", "IC50": 6.5},
      {"smiles": "CCCCC/C(=N/P(=O)(Oc1ccccc1)Oc1ccccc1)N(C(C)C)C(C)C", "IC50": 7.3},
      {"smiles": "CC(C)N(/C(CC1CCCCC1)=N\\P(=O)(Oc1ccccc1)Oc1ccccc1)C(C)C", "IC50": 2.4},
      {"smiles": "O=P(/N=C(/Cc1ccccc1)N1CCCCC1)(Oc1ccccc1)Oc1ccccc1", "IC50": 4.2},
      {"smiles": "CC(C)N(/C(Cc1ccc([N+](=O)[O-])cc1)=N\\P(=O)(Oc1ccccc1)Oc1ccccc1)C(C)C", "IC50": 2.6}
    ]}
  ]
}
